Literature values, collected in US20160243040A1, “Pharmaceutical Composition with Antiinflammatory Agents and Production Process” (LABORATORIO RAAM DE SAHUAYO, S.A. DE C.V., priority 2013, published 2016).

SMILES: O=C(O)COC(=O)Cc1ccccc1Nc1c(Cl)cccc1Cl [aceclofenac, Aceclofenac]
- average concentration in synovial fluid relative to plasma (225 mg of aceclofenac daily for 6 days): half that of plasma
- share of administered dose as metabolites diclofenac and 4-hydroxy-diclofenac (other metabolites besides 4-hydroxi-aceclofenac): 5%
